Tested on: CYP mRNAs
Assay: CYP mRNA induction in HepaRG cells, statements over all CYPs investigated
Conditions: PXR‐knockout HepaRG cells, 72 hours; 10 µM rifampicin

SMILES: CO[C@H]1/C=C/O[C@@]2(C)Oc3c(C)c(O)c4c(O)c(c(/C=N/N5CCN(C)CC5)c(O)c4c3C2=O)NC(=O)/C(C)=C\C=C\[C@H](C)[C@H](O)[C@@H](C)[C@@H](O)[C@@H](C)[C@H](OC(C)=O)[C@@H]1C [rifampicin]
- CYP mRNA induction in HepaRG cells lacking PXR: no CYP induction
